From ChEMBL document CHEMBL2176989, “Design, synthesis, and pharmacological evaluation of piperidin-4-yl amino aryl sulfonamides: novel, potent, selective, orally active, and brain penetrant 5-HT₆ receptor antagonists” (J Med Chem, 2012)

Sequences of proteins named here, by UniProt entry; tags and fusion partners are left off.
UniProt P23975, whole entry, looked up: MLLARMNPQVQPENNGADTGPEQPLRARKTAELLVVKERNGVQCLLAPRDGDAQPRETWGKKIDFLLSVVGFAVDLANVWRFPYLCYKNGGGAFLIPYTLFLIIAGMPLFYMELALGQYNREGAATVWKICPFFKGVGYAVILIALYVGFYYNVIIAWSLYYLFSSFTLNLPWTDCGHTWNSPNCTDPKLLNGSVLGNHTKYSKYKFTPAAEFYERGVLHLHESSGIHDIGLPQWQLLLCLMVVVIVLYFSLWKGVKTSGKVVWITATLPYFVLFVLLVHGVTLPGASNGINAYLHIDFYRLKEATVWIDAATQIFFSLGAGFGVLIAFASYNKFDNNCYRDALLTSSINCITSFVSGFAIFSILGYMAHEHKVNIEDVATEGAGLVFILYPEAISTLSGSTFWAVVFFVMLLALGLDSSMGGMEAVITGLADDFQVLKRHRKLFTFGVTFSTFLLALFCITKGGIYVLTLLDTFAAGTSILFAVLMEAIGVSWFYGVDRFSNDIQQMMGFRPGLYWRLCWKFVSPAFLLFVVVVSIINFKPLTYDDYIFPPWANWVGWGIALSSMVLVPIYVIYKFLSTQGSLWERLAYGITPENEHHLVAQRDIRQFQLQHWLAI

Biological target: Sodium-dependent noradrenaline transporter (Homo sapiens, UniProt P23975)
Assay: Binding affinity to NOR transporter

| SMILES | Ki |
| --- | --- |
| COc1ccc(S(=O)(=O)n2cc(C)c3cc(Cl)cnc32)cc1NC1CCN(C)CC1 | 2130 nM |
| COc1ccc(S(=O)(=O)n2cc(C)c3cc(Cl)ccc32)cc1NC1CCN(C)CC1 | 2010 nM |
